Values quoted from earlier work as cited in patent publication US7118899B2, “Detection of transmembrane potentials by optical methods” (The Regents of the University of California, priority 2001, dated 2006).
This is a selection: effects in other tests are not listed, and their absence says nothing.

System: excitable tissue
Conditions: cited from earlier work

Substance: 2,2′,4,4′,6,6′-hexanitrodiphenylamine
- kinetics of displacement currents (in words): submillisecond kinetics
